US20220363689A1, “INHIBITOR OF BTK AND MUTANTS THEREOF” (Newave Pharmaceutical Inc., priority 2019, published 2022)

The chains behind the UniProt entries cited, without tags or fusion partners. Where a name states a change or a piece, a line headed by the entry shows the natural chain unless it says otherwise.
UniProt Q06187, whole entry: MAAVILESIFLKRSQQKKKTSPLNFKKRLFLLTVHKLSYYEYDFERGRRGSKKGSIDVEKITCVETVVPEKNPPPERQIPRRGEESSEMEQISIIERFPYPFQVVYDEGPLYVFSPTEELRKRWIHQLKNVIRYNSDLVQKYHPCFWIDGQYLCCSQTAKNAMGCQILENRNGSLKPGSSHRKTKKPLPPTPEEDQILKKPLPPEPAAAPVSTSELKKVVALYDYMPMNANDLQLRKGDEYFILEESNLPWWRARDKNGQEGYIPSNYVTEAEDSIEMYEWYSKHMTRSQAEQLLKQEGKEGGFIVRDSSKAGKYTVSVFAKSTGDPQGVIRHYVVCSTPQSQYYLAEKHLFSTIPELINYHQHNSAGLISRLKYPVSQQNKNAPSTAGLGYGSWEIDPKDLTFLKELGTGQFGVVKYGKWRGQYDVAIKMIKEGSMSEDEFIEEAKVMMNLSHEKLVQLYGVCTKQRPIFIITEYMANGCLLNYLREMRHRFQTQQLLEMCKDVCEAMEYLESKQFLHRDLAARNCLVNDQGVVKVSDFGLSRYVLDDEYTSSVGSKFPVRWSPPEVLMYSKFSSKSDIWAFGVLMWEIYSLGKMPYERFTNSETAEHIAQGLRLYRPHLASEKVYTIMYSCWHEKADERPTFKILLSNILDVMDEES
UniProt Q06187, whole entry C481S: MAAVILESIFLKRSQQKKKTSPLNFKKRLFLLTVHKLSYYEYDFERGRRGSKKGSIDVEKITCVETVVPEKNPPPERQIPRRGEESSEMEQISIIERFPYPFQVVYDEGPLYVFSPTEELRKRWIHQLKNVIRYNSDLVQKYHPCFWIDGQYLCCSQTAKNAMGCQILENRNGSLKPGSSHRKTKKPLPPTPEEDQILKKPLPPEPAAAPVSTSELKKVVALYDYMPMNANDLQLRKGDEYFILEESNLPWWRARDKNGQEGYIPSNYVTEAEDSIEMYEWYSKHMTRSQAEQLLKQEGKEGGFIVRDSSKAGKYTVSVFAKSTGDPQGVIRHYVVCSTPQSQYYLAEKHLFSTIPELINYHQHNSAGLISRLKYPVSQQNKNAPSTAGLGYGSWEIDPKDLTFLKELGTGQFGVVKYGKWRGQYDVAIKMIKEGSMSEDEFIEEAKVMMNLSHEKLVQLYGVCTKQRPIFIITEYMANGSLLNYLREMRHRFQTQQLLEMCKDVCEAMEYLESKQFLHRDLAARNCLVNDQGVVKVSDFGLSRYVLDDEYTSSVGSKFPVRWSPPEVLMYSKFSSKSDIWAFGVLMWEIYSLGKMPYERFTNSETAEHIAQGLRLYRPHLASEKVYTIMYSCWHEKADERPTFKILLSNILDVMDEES

Biological target: T1, WT BTK (Homo sapiens, UniProt Q06187)
Test: Caliper-based kinase assay, WT BTK
Type: biochemical
Conditions: read-out: WT BTK IC50 (nM) (irreversible inhibition); 0.5 nM enzyme, ATP 16 μM, room temperature 3 h

SMILES	IC50 [nM]
C=CC(=O)Nc1cc(Nc2nc(-c3ccnc(N4CCn5c(cc6c5CC(C)(C)C6)C4=O)c3CO)cn(C)c2=O)ccc1N1CCC(N2CCN(C)CC2)C[C@@H]1C (stereo partly drawn)	0.065
C=CC(=O)Nc1cc(Nc2nc(-c3ccnc(N4CCn5c(cc6c5CC(C)(C)C6)C4=O)c3CO)cn(C)c2=O)ccc1N1CCN(C2C[C@@H](C)O[C@@H](C)C2)C[C@@H]1C (stereo partly drawn)	0.068
C=CC(=O)Nc1cc(Nc2nc(-c3ccnc(N4CCn5c(cc6c5CC(C)(C)C6)C4=O)c3CO)cn(C)c2=O)ccc1N1CCN(C2CCO[C@H](C)C2)C[C@@H]1C (stereo partly drawn)	0.042

Biological target: C481S Btk (Homo sapiens, UniProt Q06187, C481S)
Test: Caliper-based kinase assay, C481S BTK
Type: biochemical
Conditions: read-out: C481S BTK IC50 (nM) (reversible inhibition); 0.5 nM enzyme, ATP 16 μM, room temperature 3 h

SMILES	IC50 [nM]
C=CC(=O)Nc1cc(Nc2nc(-c3ccnc(N4CCn5c(cc6c5CC(C)(C)C6)C4=O)c3CO)cn(C)c2=O)ccc1N1CCC(N2CCN(C)CC2)C[C@@H]1C (stereo partly drawn)	0.6
C=CC(=O)Nc1cc(Nc2nc(-c3ccnc(N4CCn5c(cc6c5CC(C)(C)C6)C4=O)c3CO)cn(C)c2=O)ccc1N1CCN(C2C[C@@H](C)O[C@@H](C)C2)C[C@@H]1C (stereo partly drawn)	0.22
C=CC(=O)Nc1cc(Nc2nc(-c3ccnc(N4CCn5c(cc6c5CC(C)(C)C6)C4=O)c3CO)cn(C)c2=O)ccc1N1CCN(C2CCO[C@H](C)C2)C[C@@H]1C (stereo partly drawn)	0.35

Biological target: T1, WT BTK
Test: In vitro dialysis assay (irreversibility assay), WT BTK
Type: biochemical
Conditions: reversible or irreversible/covalent inhibition after 24 h dialysis

SMILES	Conclusion (WT BTK)
C=CC(=O)Nc1cc(Nc2nc(-c3ccnc(N4CCn5c(cc6c5CC(C)(C)C6)C4=O)c3CO)cn(C)c2=O)ccc1N1CCC(N2CCN(C)CC2)C[C@@H]1C (stereo partly drawn)	Irreversible/covalent inhibition
C=CC(=O)Nc1cc(Nc2nc(-c3ccnc(N4CCn5c(cc6c5CC(C)(C)C6)C4=O)c3CO)cn(C)c2=O)ccc1N1CCN(C2C[C@@H](C)O[C@@H](C)C2)C[C@@H]1C (stereo partly drawn)	Irreversible/covalent inhibition
C=CC(=O)Nc1cc(Nc2nc(-c3ccnc(N4CCn5c(cc6c5CC(C)(C)C6)C4=O)c3CO)cn(C)c2=O)ccc1N1CCN(C2CCO[C@H](C)C2)C[C@@H]1C (stereo partly drawn)	Irreversible/covalent inhibition
